Source: patent US20260382581A1, “COMPOSITIONS COMPRISING CYTISINE IN THE TREATMENT AND/OR PREVENTION OF ADDICTION IN SUBJECTS IN NEED THEREOF” (published 2026)

Experiments:
[1] = tested on: adult users of nicotine e-cigarettes; assay: claude: secondary continuous vaping abstinence (Weeks 3-6, 6-9, 3-9, Week 9 to 16)
Description: A second measurement consisted of biochemically verified continuous vaping abstinence at any time during treatment, with vaping abstinence at Week 3-6 or Week 6-9 for of cytisinicline treatment vs placebo. 7-day point prevalence rates were compared for vaping abstinence (Week 2 to 12) (FIG. 62). An additional measurement included reduction in daily vaping as measured by cotinine, where cytisinicline treatment vs placebo for a reduction in nicotine vaping using weekly quantitative cotinine levels from Week 2 to Week 12. Safety was assessed by adverse effects and serious adverse effects, considering number, severity, and attribution to study drug. Early beneficial effect was observed and continued throughout the 12 weeks with some weeks at or close to statistical significance (weeks 4, 6, 7, 8, 9, and 12) (FIGS. 63-65). Cotinine values less than 1 were converted to 1 due to extreme asymmetry (FIG. 65)
Primary Marginal and Secondary Outcomes: the primary outcome analysis (not stratified) and the secondary outcomes are analyzed using Fisher's exact test. A forest graph compares the primary outcome marginal and secondary outcome effects (FIG. 43)

adult smokers = assay: ORCA-2: biochemically-confirmed continuous smoking abstinence (primary and secondary; odds ratio, relative risk, risk difference, number needed to treat)
Description: The trial was conducted at 17 U.S. sites. Adults aged>18 years were eligible if they currently smoked≥10 cigarettes per day, had expired air carbon monoxide (CO)>10 ppm, and intended to quit smoking. Individuals were excluded if they used any non-cigarette tobacco product (pipe tobacco, cigars, smokeless tobacco, hookah), electronic cigarettes, smoking cessation medication (bupropion, varenicline, nortriptyline, nicotine replacement product), or marijuana (smoked or vaped) in the 28 days before randomization or planned to use them during the study. Other exclusion criteria included uncontrolled hypertension, hepatic or renal impairment, past 3-month history of acute myocardial infarction, unstable angina, cerebrovascular incident, or hospitalization for congestive heart failure, diagnosis of schizophrenia or bipolar disorder, current psychosis, suicidal ideation or suicide risk (Columbia Suicide Severity Rating Scale), (1) moderate to severe depression symptoms (Hospital Anxiety and Depression Scale score 11), (2) or a positive urinary screen for illicit drugs. (Full criteria in Trial Protocol).
At a screening visit, individuals provided written informed consent, completed a medical history, brief physical examination, electrocardiogram and laboratory tests, agreed to a quit date 5 to 7 days after study drug initiation, and recorded the number of cigarettes smoked daily for 7 days. At a second visit, participants who met inclusion and exclusion criteria were randomly assigned to study arm, received brief smoking cessation counseling, set their quit date within 5 to 7 days and started study medication the next day. A predetermined central computer-generated randomization sequence was used to assign participants (1:1:1) stratified by study site to receive placebo TID for 12 weeks (Arm A), 3 mg cytisinicline TID for 6 weeks followed by placebo TID for 6 weeks (Arm B), or 3 mg cytisinicline TID for 12 weeks (Arm C).
Study medication was identical-appearing tablets, containing 3 mg cytisinicline or placebo taken orally TID for 12 weeks. Participants were followed for 12 additional weeks after treatment ended. All participants received 10 minutes of brief smoking cessation behavioral support provided by trained counselors at each visit from randomization through week 24.
Assessments after randomization were conducted at in-person visits on day 2, weekly from 1 to 12 weeks, and at weeks 16, 20, and 24. Participants who discontinued study drug prematurely were encouraged to remain in the study and complete all assessment visits. Smoking status was assessed by self-report of cigarette abstinence since the last visit, measured weekly from weeks 2 through 12. Self-reported abstinence at weeks 16, 20, and 24 used the Russell criteria of not smoking more than 5 cigarettes since the last visit (3). A breath carbon monoxide (CO) level was measured at each visit. Verified abstinence required self-reported nonsmoking and a breath carbon monoxide (CO)<10 ppm. Participants not meeting these criteria or with missing data were classified as smoking.
The study had two primary endpoints. They assessed whether cytisinicline produced greater biochemically-confirmed continuous smoking abstinence when compared to placebo during the last 4 weeks of the 6-week treatment (weeks 3 to 6 for Arms B vs. A) and the 12-week treatment (weeks 9 to 12 for Arms C vs. A). Study success was defined as either primary endpoint meeting statistical criterion. The secondary outcome measures were verified continuous cigarette abstinence to week 24 (weeks 3 to 24 for Arms B vs. A; weeks 9 to 24 for Arms C vs. A). A third secondary outcome measure compared the risk of relapse to smoking between weeks 6 and 24 among participants assigned to cytisinicline who achieved abstinence by week 6; these individuals were either switched to placebo at week 6 (Arm B) or continued cytisinicline to week 12 (Arm C). […]

[2] = Week 9 to Week 16, 12 Weeks arm, N = 107

O=c1cccc2n1C[C@@H]1CNC[C@H]2C1
Vaping cessation from Week 3 to Week 6, % ([1]; 12 weeks, N = 107): 24.3% | Vaping cessation from Week 6 to Week 9, % ([1]; 12 weeks, N = 107): 30.8% | Difference in Proportions (95% CI) ([1]; Week 3 to 6, vs placebo): 0.09 (−0.058, 0.209) | Odds Ratio (95% CI) ([1]; Week 3 to 6, vs placebo): 1.81 (0.766, 4.551) | Difference in Proportions (95% CI) ([1]; Week 6 to 9, vs placebo): 0.14 (−0.019, 0.263) | Odds Ratio (95% CI) ([1]; Week 6 to 9, vs placebo): 2.18 (0.967, 5.202) | Continuous vaping abstinence, percent of subjects [1, 2]: 23.4% | Continuous vaping abstinence, subjects [1, 2]: 25 n | Continuous vaping abstinence, difference in proportions ([1]; Week 9 to Week 16, vs placebo): 0.10 | Continuous vaping abstinence, odds ratio ([1]; Week 9 to Week 16, vs placebo): 2.00 | continuous abstinence weeks 3 to 6 (adult smokers; 3 mg TID 6 weeks (Arm B)): 25.3% | continuous abstinence weeks 9 to 12 (adult smokers; 3 mg TID 12 weeks (Arm C)): 32.6% | OR, continuous abstinence weeks 3 to 6 (adult smokers; Arm B (6 weeks) vs placebo, 95% CI 3.9-16.3, p<0.0001): 8.0 | OR, continuous abstinence weeks 3 to 24 (adult smokers; Arm B vs placebo, 95% CI 1.5-10.2, p=0.0016): 3.7 | OR, continuous abstinence weeks 9 to 12 (adult smokers; Arm C (12 weeks) vs placebo, 95% CI 3.7-11.6, p<0.0001): 6.3 | OR, continuous abstinence weeks 9 to 24 (adult smokers; Arm C vs placebo, 95% CI 2.8-11.1, p<0.0001): 5.3 | Biochemically confirmed continuous smoking abstinence, % (adult smokers; Weeks 3-6 (primary), Arm B, 6 weeks, N = 269, placebo 4.4%): 25.3% | Continuous smoking abstinence, risk difference (adult smokers; Weeks 3-6, Arm B 6 weeks vs. placebo, 95% CI 0.16, 0.25): 0.21 | Continuous smoking abstinence, relative risk (adult smokers; Weeks 3-6, Arm B 6 weeks vs. placebo, 95% CI 3.26, 10.74): 5.71 | Continuous smoking abstinence, NNT (number needed to treat) (adult smokers; Weeks 3-6, Arm B 6 weeks vs. placebo, 95% CI 4, 7): 5 | Continuous smoking abstinence, odds ratio (adult smokers; Weeks 3-6, Arm B 6 wk vs. placebo, 95% CI 3.9 to 16.3): 8.0 (3.9 to | Continuous smoking abstinence, risk difference (adult smokers; Weeks 3-6, Arm C 12 weeks vs. placebo, 95% CI 0.13, 0.22): 0.18 | Continuous smoking abstinence, relative risk (adult smokers; Weeks 3-6, Arm C 12 weeks vs. placebo, 95% CI 2.842, 9.50): 5.02 | Continuous smoking abstinence, NNT (number needed to treat) (adult smokers; Weeks 3-6, Arm C 12 weeks vs. placebo, 95% CI 4, 8): 6 | Biochemically confirmed continuous smoking abstinence, % (adult smokers; Weeks 3-6, Arm C, 12 weeks, N = 270, placebo 4.4%): 22.2% | Biochemically confirmed continuous smoking abstinence, % (adult smokers; Weeks 9-12 (primary), Arm C, 12 weeks, N = 270, placebo 7.0%): 32.6% | Continuous smoking abstinence, risk difference (adult smokers; Weeks 9-12, Arm B 6 weeks vs. placebo, 95% CI 0.10, 0.20): 0.15 | Continuous smoking abstinence, relative risk (adult smokers; Weeks 9-12, Arm B 6 weeks vs. placebo, 95% CI 1.98, 5.30): 3.18 | Continuous smoking abstinence, NNT (number needed to treat) (adult smokers; Weeks 9-12, Arm B 6 weeks vs. placebo, 95% CI 4, 11): 7 | Biochemically confirmed continuous smoking abstinence, % (adult smokers; Weeks 9-12, Arm B, 6 weeks, N = 269, placebo 7.0%): 22.3% | Continuous smoking abstinence, risk difference (adult smokers; Weeks 9-12, Arm C 12 weeks vs. placebo, 95% CI 0.20, 0.30): 0.26 | Continuous smoking abstinence, relative risk (adult smokers; Weeks 9-12, Arm C 12 weeks vs. placebo, 95% CI 2.98, 7.58): 4.65 | Continuous smoking abstinence, NNT (number needed to treat) (adult smokers; Weeks 9-12, Arm C 12 weeks vs. placebo, 95% CI 3, 6): 4 | Continuous smoking abstinence, odds ratio (adult smokers; Weeks 9-12, Arm C 12 wk vs. placebo, 95% CI 3.7 to 11.6): 6.3 (3.7 to
